Screens from PubChem BioAssay.
rTrxR1 inhibitor: rat TrxR1 inhibition; O89049; recombinant rTrxR1, NADPH fluorescence consumption, selenite substrate; Potency, µM (doses to about 114 µM), for the others: at the highest dose activity change, negative = inhibition, most hits filed as inhibitors; actives 1% (n = 390,000); AID 588453; further: potency means the concentration at half of the fitted maximal effect; on the % scale 0 is the no-effect control and ±100 the full control effect; nearly all actives have a fitted effect of over 65% in size
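Rat TrxR1 (90 nM in the dispensed reagent) was pre-reduced with 400 uM NADPH for 5 min at room temperature, then incubated with compound for 15 min. After 400 uM selenite was added, NADPH fluorescence (Ex 340/Em 450 nm) was followed for 8 min.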
PINK1 expr mod: PINK1 expression modulation; PINK1 immunofluorescence, high-content cytometry, 24 h; Potency, µM (series often up to 76.6 µM), without a hit: at the highest dose activation (PINK1 increase), most hits filed as activators; actives 0.2% (n = 410,000); active means well fitted activation curve with a large enough effect; inconclusive means small, poorly fitted or top-dose-only effect; cell line not stated here; further: potency means the concentration at half of the fitted maximal effect; % of control where 0% means no effect; nearly all actives have a fitted effect of over 65% in size
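PINK1 protein, normally rapidly degraded, was detected by immunofluorescence after 24 hour compound treatment of a stable cell line. Titration data (5 concentrations) came from laser-scanning cytometry, with CCCP-treated wells as controls.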
miR-21 reporter: miR-21 reporter, rising signal; HeLa miR-21 FLuc reporter, luciferase, 48 h; Potency, µM (top dose mostly 38.3 µM), without a hit: at the highest dose reporter change, positive = more light; 340,000 tested, under 10 active; active = well fitted rising curve with a large enough effect; inconclusive = small, poorly fitted or top-dose-only effect; inactive = no such curve, though single readings can be large or run the other way;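 further: % of control where 0% means no effect; miR-21 action dims this reporter so a rising signal means less miR-21 action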
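Compounds were titrated across several concentrations (up to approximately 40 uM) and incubated 48 hours with HeLa miR-21-FLuc reporter cells (miR-21 target sequence downstream of FLuc, endogenous miR-21). Readout was firefly luciferase luminescence after lytic detection reagent.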
GALK inh: inhibitors of human galactokinase | actives 0.007% (n = 270,000) | P51570 | Potency, µM (series often up to 57.5 µM), for inactives: at the top dose activity change, negative = inhibition, actives largely listed as inhibitors | Purified GALK, Kinase-Glo residual ATP luminescence; further: potency means the concentration at half of the fitted maximal effect; on the % scale 0 is the no-effect control and ±100 the full control effect
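GALK at 5 nM final was combined with compound, 35 uM ATP and 100 uM galactose in HEPES pH8.0 with MgCl2 and DTT. The reaction ran one hour at room temperature before luminescent ATP detection.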
TrxR1 substrate: rat thioredoxin reductase 1 substrate activity; Potency, µM (titrated, usually from 114 µM), without a hit: top-dose activity change, negative = substrate turnover; O89049; purified TrxR1 substrate turnover, NADPH consumption readout; actives 0.01% (n = 390,000); further: potency means the concentration at half of the fitted maximal effect; on the % scale 0 is the no-effect control and ±100 the full control effect; nearly all actives have a fitted effect of over 50% in size
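Rat TrxR1, dispensed at 90 nM, was prereduced with 400 uM NADPH (final) for 5 min at ~22 deg C, then incubated with compound 15 min before 400 uM selenite. A first-read NADPH fluorescence drop versus no-compound background flagged substrates.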
* marks the source's active call; other numbers are inactive results; ? = inconclusive; / = no result; [ ] = remark or other dose. A selection: hits, their analogues and other compounds. The true share with any hit is near 1.1%. Unless noted, the call rests on the fitted dose curve; in most records, active means well fitted curve in the direction sought with a large enough effect; inconclusive means small, poorly fitted or top-dose-only effect, or another doubt; inactive means no such curve, though single readings can be large; an effect the other way counts as inactive or inconclusive.

Preview (2 entries):
entry | molecule | rTrxR1 inhibitor | PINK1 expr mod | miR-21 reporter | GALK inh | TrxR1 substrate
1 | O=C1/C(=C\c2ccc(Cl)c(Cl)c2)CN(C(=O)CCN2CCOCC2)C/C1=C/c1ccc(Cl)c(Cl)c1 | 1.4µM* | -6% | / | / | 11%[57.1 µM]
2 | O=C(NCCN1CCOCC1)c1ccc(Cl)c(Cl)c1 | 24% | 3% | -9% | 0% | -1%

Main list, from the first entry:
entry | molecule | rTrxR1 inhibitor | PINK1 expr mod | miR-21 reporter | GALK inh | TrxR1 substrate
1 | O=C1/C(=C\c2ccc(Cl)c(Cl)c2)CN(C(=O)CCN2CCOCC2)C/C1=C/c1ccc(Cl)c(Cl)c1 | 1.4µM* | -6% | / | / | 11%[57.1 µM]
2 | O=C(NCCN1CCOCC1)c1ccc(Cl)c(Cl)c1 | 24% | 3% | -9% | 0% | -1%
3 | O=C1/C(=C\c2ccccc2)CN(C(=O)CCN2CCCCC2)C/C1=C/c1ccccc1 | 5µM* | 0% | / | / | -9%
4 | CC(Oc1ccccc1)C(=O)N[C@@H]1C(=O)N2C(C(=O)OCC3CCCCC3)C(C)(C)S[C@H]12 (stereo partly drawn) | -12% | / | / | / | 1%
5 | COc1ccc(-n2nc3c(c2NC(=O)CCl)CSC3)cc1 | 14µM* | 0% | ? | -3% | 16%
6 | COC(=O)CSC1=NS(=O)(=O)c2ccccc21 | 2.2µM* | 5% | -6% | -1% | -2%
7 | O=C(CSC1=NS(=O)(=O)c2ccccc21)Nc1ccccc1 | 7.9µM* | 5% | 16% | 2% | 6%[57.1 µM]
8 | CN1CCc2nc(SCC(=O)Nc3cccc(F)c3)c(C#N)c(-c3cccs3)c2C1 | 5µM* | 6%[38.3 µM] | -14% | 0% | 5%
9 | Cc1cccc(CSc2nc3c(c(-c4cccs4)c2C#N)CN(C)CC3)c1 | ? | 9% | 14% | 1% | -5%
10 | CN1CCc2nc(SCC(=O)Nc3ccc(OC(F)(F)F)cc3)c(C#N)c(-c3cccs3)c2C1 | 10µM* | 2% | 8% | 1% | 3%
11 | O=S(=O)(Nc1nc2ccccc2nc1N1CCc2ccccc2C1)c1ccc(Cl)cc1 | 6% | 16µM* | -48% | 0% | 9%
12 | Cc1ccc(-c2nc3cc(Cl)ccc3o2)cc1NC(=O)COc1ccccc1C | 4% | 3% | / | / | 1%
13 | Nc1nonc1C(=O)N/N=C/c1cc2c(cc1[N+](=O)[O-])OCO2 | 2% | 40µM* | -2% | 0% | -3%
14 | Cc1cccc(C(=O)Nc2cccc(C(=O)OCc3cc(=O)n4ccsc4n3)c2)c1 | 9%[57.1 µM] | -1% | -19% | / | -1%[57.1 µM]
15 | CCSc1nnc(NC(=O)NC(C)(C(F)(F)F)C(F)(F)F)s1 | 4% | 20µM* | 27% | / | 3%
16 | CCCC(=O)Nc1nnc(SCC)s1 | 5% | 0% | -27% | 0% | 1%
17 | CCSc1nnc(NC(=O)NC(CC)(C(F)(F)F)C(F)(F)F)s1 | -13% | 22µM* | ? | 6% | -13%
18 | CCSc1nnc(NC(=O)Nc2cccc(C)c2)s1 | 18% | 13µM* | -10% | -5% | 3%
19 | CCC(NC(=O)Nc1nccs1)(C(F)(F)F)C(F)(F)F | 0% | 1% | 8% | 2% | -6%
20 | O=C(CSc1nnc(CNC(=O)c2cccc(F)c2)n1-c1ccccc1)Nc1ccccc1F | 24% | -2% | 3% | / | 3%
21 | CCOC(=O)c1cc(-c2ccc(F)cc2)n(CCC(=O)Nc2nc3cc(C)c(C)cc3s2)c1C | 26%[57.1 µM] | 0% | -8% | / | 2%[57.1 µM]
22 | Cc1cc(NC(=O)CCOc2ccc(F)cc2)no1 | 14µM* | -1% | 0% | -2% | 6%
23 | O=C(Cn1nc(-c2ccco2)ccc1=O)Nc1cc(Cl)ccc1Cl | ? | -1% | -5% | / | 18%
24 | CCOc1ccccc1NC(=O)CSc1ccc(-c2sc(C)nc2C)nn1 | -7% | 1% | 6% | -1% | -5%
25 | CCOc1ccccc1NC(=O)CSc1ccc(-c2ccco2)nn1 | 35µM* | 1% | -2% | -3% | -3%
26 | CCOc1ccccc1NC(=O)Cn1nc(-c2ccco2)ccc1=O | 32µM* | 2% | -3% | -1% | 3%
27 | O=C(CSc1ccc(-c2ccco2)nn1)Nc1ccccc1F | 20µM* | 1% | -7% | -3% | 8%
28 | Cc1ccc(NC(=O)CSc2ccc(-c3ccco3)nn2)c(C)c1 | ? | 0% | 0% | 0% | -2%
29 | COc1cc2ncc3c(-c4ccccc4)nn(-c4ccc(C)cc4)c3c2cc1OC | -13%[57.1 µM] | 3% | 2% | / | -5%[57.1 µM]
30 | CCc1nc2c(OCC(=O)C(C)(C)C)cccn2c1N(C)C(=O)C(C)C | / | 2% | / | / | /
31 | COc1cccc(C2C(C(=O)/C=C/c3ccco3)=C(O)C(=O)N2CCN2CCOCC2)c1 (stereo not drawn) | 10µM* | 1% | -1% | 7% | -3%

Down the list, as entered above.
Nos. 8 to 18 in GALK inh read 0%, 1%, 1%, 0%, /, 0%, /, /, 0%, 6%, -5%
Nos. 8 to 18 in miR-21 reporter read -14%, 14%, 8%, -48%, /, -2%, -19%, 27%, -27%, ?, -10%
Nos. 8 to 18 in TrxR1 substrate read 5%, -5%, 3%, 9%, 1%, -3%, -1%[57.1 µM], 3%, 1%, -13%, 3%
